This is an account of results in patent US8987242B2, “Morpholinone compounds as factor IXA inhibitors” (Merck Sharp & Dohme Corp., priority 2008, dated 2015).

Amino acid sequences for entries named in this document (tags omitted). Residues count along the entry.
UniProt P00740, 227-461: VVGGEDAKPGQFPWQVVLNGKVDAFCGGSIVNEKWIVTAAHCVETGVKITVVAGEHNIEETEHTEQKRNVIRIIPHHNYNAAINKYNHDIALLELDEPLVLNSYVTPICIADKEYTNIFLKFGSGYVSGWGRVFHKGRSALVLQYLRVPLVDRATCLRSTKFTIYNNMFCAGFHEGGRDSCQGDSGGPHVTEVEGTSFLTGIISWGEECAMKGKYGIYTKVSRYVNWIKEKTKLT
UniProt P00740, 47-191 partner: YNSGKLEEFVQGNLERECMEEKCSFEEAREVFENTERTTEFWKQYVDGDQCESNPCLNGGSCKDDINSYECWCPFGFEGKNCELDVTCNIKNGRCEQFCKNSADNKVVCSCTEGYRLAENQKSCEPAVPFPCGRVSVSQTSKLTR

pIC50: −log10 of the molar value.

This assay concerns the target human factor IXa (Homo sapiens (Human), UniProt P00740). As to the kind of experiment: Determination of inhibitory activity against factor IXa (SPECTROFLUOR FIXa fluorogenic substrate enzyme assay). Type of assay: biochemical. As to conditions: human factor IXa 2.0 μg/ml, SPECTROFLUOR FIXa 100 μM, 60 minutes at room temperature, pH 8.0. As for the experimental part: Inhibitory activity against factor IXa was tested using the substrate SPECTROFLUOR FIXa (american diagnostica inc.; 500 West Avenue, Stamford, Conn. 06902 USA; Pr. No. 299F) and human factor IXa (american diagnostica inc.; Pr. No. 449b). Test substances dissolved in buffer A (50 mM α,α,α-tris(hydroxymethyl)methylamine (Tris), 100 mM NaCl, 5 mM CaCl2, 15% (v/v) ethylene glycol, pH 8.0) were mixed with factor IXa (2.0 μg/ml final concentration). The enzyme reaction was started by addition of SPECTROFLUOR FIXa (100 μM final concentration). After incubation for 60 minutes at room temperature, the reaction was stopped by the addition of 20% (v/v) acetic acid solution, and then measured the fluorescence value (Excitation Wavelength: 355 nm, Emission Wavelength; 460 nm) in a microtiter plate reader (ARVO 1420 Multilabel Counter; PerkinElmer).
The IC50 was calculated from a dilution series of the test substance with the aid of the software, Symix Assay Explorer (Symyx Technologies, Inc.).

Broadly, the pIC50 is −log10 of the IC50, conventionally taken in molar units. Low readings indicate a large IC50, high ones a small IC50. Regarding `Nc1noc2cc(NC(=O)[C@H](O)[C@H]3OCCN(c4cccc(S(F)(F)(F)(F)F)c4)C3=O)ccc12` [Example aa150, [3-[2(R)-[2-[(3-Amino-1,2-benzisoxazol-6-yl)amino]-1(R)-hydroxy-2-oxoethyl]-3-oxo-4-morpholinyl]phenyl] pentafluorosulfur], the pIC50 is 7.08.
